# Assay results as given in PubChem BioAssay (NCI).
# Some tests of the compounds listed are not included; inactive here does not mean inactive elsewhere.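 Tested at 5 concentrations; 48 h exposure; 96-well plates; endpoints linearly interpolated, else capped at highest concentration. GI50 marks 50% less growth. TGI is the concentration that stops growth completely.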
# How the values were obtained:
# Test in all cases: NCI anticancer screen, dose series, 48 h
# UACC-257 melanoma = system: UACC-257 melanoma
# HCT-116 colon = system: HCT-116 colon
# 786-0 renal = system: 786-0 renal
# A498 renal = system: A498 renal
# IGROV1 ovarian = system: IGROV1 ovarian
# CCRF-CEM leukemia = system: CCRF-CEM leukemia
# SNB-19 CNS = system: SNB-19 CNS
# UO-31 renal = system: UO-31 renal
# A549 NSCLC = system: A549 NSCLC
# BT-549 breast = system: BT-549 breast
# NCI-H226 lung = system: NCI-H226 lung
# NCI/ADR-RES ovarian = system: NCI/ADR-RES ovarian
# MDA-MB-435 = system: MDA-MB-435
# MDA-MB-231 breast = system: MDA-MB-231 breast
# OVCAR-4 ovarian = system: OVCAR-4 ovarian
# COLO 205 colon = system: COLO 205 colon
# HL-60(TB) leukemia = system: HL-60(TB) leukemia
# U251 CNS = system: U251 CNS
# NCI-H522 lung = system: NCI-H522 lung
# CAKI-1 renal = system: CAKI-1 renal
# RPMI-8226 leukemia = system: RPMI-8226 leukemia
# RXF 393 renal = system: RXF 393 renal
# OVCAR-8 ovarian = system: OVCAR-8 ovarian
# SF-539 CNS = system: SF-539 CNS
# MCF7 breast = system: MCF7 breast
# SF-268 CNS = system: SF-268 CNS
# TK-10 renal = system: TK-10 renal
# OVCAR-3 ovarian = system: OVCAR-3 ovarian
# NCI-H322M lung = system: NCI-H322M lung
# SK-MEL-28 melanoma = system: SK-MEL-28 melanoma
# HOP-92 NSCLC = system: HOP-92 NSCLC
# OVCAR-5 ovarian = system: OVCAR-5 ovarian
# T-47D breast = system: T-47D breast
# MDA-N = system: MDA-N
# MALME-3M melanoma = system: MALME-3M melanoma
# M14 melanoma = system: M14 melanoma
# SR leukemia = system: SR leukemia
# ACHN renal = system: ACHN renal
# SF-295 CNS = system: SF-295 CNS
# HOP-62 NSCLC = system: HOP-62 NSCLC
# NCI-H23 lung = system: NCI-H23 lung
# PC-3 prostate = system: PC-3 prostate
# DU-145 prostate = system: DU-145 prostate
# UACC-62 melanoma = system: UACC-62 melanoma
# K-562 leukemia = system: K-562 leukemia
# SK-MEL-2 melanoma = system: SK-MEL-2 melanoma
# SK-OV-3 ovarian = system: SK-OV-3 ovarian
# SNB-75 CNS = system: SNB-75 CNS
# EKVX NSCLC = system: EKVX NSCLC
# LOX IMVI melanoma = system: LOX IMVI melanoma
# SN12C renal = system: SN12C renal
# HT29 colon = system: HT29 colon
# MOLT-4 leukemia = system: MOLT-4 leukemia
# SK-MEL-5 melanoma = system: SK-MEL-5 melanoma
# HS 578T breast = system: HS 578T breast
# HCT-15 colon = system: HCT-15 colon
compound,measurement,setting,value
O=C(OC1CN2CCC1CC2)C(O)(C#Cc1ccccc1)c1ccccc1 (configuration not stated),GI50,UACC-257 melanoma,> 100 µM
same,TGI,UACC-257 melanoma,> 100 µM
same,GI50,HCT-116 colon,> 100 µM
same,TGI,HCT-116 colon,> 100 µM
same,GI50,786-0 renal,> 100 µM
same,TGI,786-0 renal,> 100 µM
same,GI50,A498 renal,> 100 µM
same,TGI,A498 renal,> 100 µM
same,GI50,IGROV1 ovarian,96.4 µM
same,TGI,IGROV1 ovarian,> 100 µM
same,GI50,CCRF-CEM leukemia,> 100 µM
same,TGI,CCRF-CEM leukemia,> 100 µM
same,GI50,SNB-19 CNS,> 100 µM
same,TGI,SNB-19 CNS,> 100 µM
same,GI50,UO-31 renal,> 100 µM
same,TGI,UO-31 renal,> 100 µM
same,GI50,A549 NSCLC,> 100 µM
same,TGI,A549 NSCLC,> 100 µM
same,GI50,BT-549 breast,> 100 µM
same,TGI,BT-549 breast,> 100 µM
same,GI50,NCI-H226 lung,> 100 µM
same,TGI,NCI-H226 lung,> 100 µM
same,GI50,NCI/ADR-RES ovarian,> 100 µM
same,TGI,NCI/ADR-RES ovarian,> 100 µM
same,GI50,MDA-MB-435,> 100 µM
same,TGI,MDA-MB-435,> 100 µM
same,GI50,MDA-MB-231 breast,> 100 µM
same,TGI,MDA-MB-231 breast,> 100 µM
same,GI50,OVCAR-4 ovarian,> 100 µM
same,TGI,OVCAR-4 ovarian,> 100 µM
same,GI50,COLO 205 colon,> 100 µM
same,TGI,COLO 205 colon,> 100 µM
same,GI50,HL-60(TB) leukemia,> 100 µM
same,TGI,HL-60(TB) leukemia,> 100 µM
same,GI50,U251 CNS,> 100 µM
same,TGI,U251 CNS,> 100 µM
same,GI50,NCI-H522 lung,> 100 µM
same,TGI,NCI-H522 lung,> 100 µM
same,GI50,CAKI-1 renal,> 100 µM
same,TGI,CAKI-1 renal,> 100 µM
same,GI50,RPMI-8226 leukemia,> 100 µM
same,TGI,RPMI-8226 leukemia,> 100 µM
same,GI50,RXF 393 renal,> 100 µM
same,TGI,RXF 393 renal,> 100 µM
same,GI50,OVCAR-8 ovarian,> 100 µM
same,TGI,OVCAR-8 ovarian,> 100 µM
same,GI50,SF-539 CNS,> 100 µM
same,TGI,SF-539 CNS,> 100 µM
same,GI50,MCF7 breast,> 100 µM
same,TGI,MCF7 breast,> 100 µM
same,GI50,SF-268 CNS,> 100 µM
same,TGI,SF-268 CNS,> 100 µM
same,GI50,TK-10 renal,> 100 µM
same,TGI,TK-10 renal,> 100 µM
same,GI50,OVCAR-3 ovarian,> 100 µM
same,TGI,OVCAR-3 ovarian,> 100 µM
same,GI50,NCI-H322M lung,> 100 µM
same,TGI,NCI-H322M lung,> 100 µM
same,GI50,SK-MEL-28 melanoma,> 100 µM
same,TGI,SK-MEL-28 melanoma,> 100 µM
same,GI50,HOP-92 NSCLC,> 100 µM
same,TGI,HOP-92 NSCLC,> 100 µM
same,GI50,OVCAR-5 ovarian,> 100 µM
same,TGI,OVCAR-5 ovarian,> 100 µM
same,GI50,T-47D breast,> 100 µM
same,TGI,T-47D breast,> 100 µM
same,GI50,MDA-N,> 100 µM
same,TGI,MDA-N,> 100 µM
same,GI50,MALME-3M melanoma,> 100 µM
same,TGI,MALME-3M melanoma,> 100 µM
same,GI50,M14 melanoma,> 100 µM
same,TGI,M14 melanoma,> 100 µM
same,GI50,SR leukemia,> 100 µM
same,TGI,SR leukemia,> 100 µM
same,GI50,ACHN renal,> 100 µM
same,TGI,ACHN renal,> 100 µM
same,GI50,SF-295 CNS,> 100 µM
same,TGI,SF-295 CNS,> 100 µM
same,GI50,HOP-62 NSCLC,> 100 µM
same,TGI,HOP-62 NSCLC,> 100 µM
same,GI50,NCI-H23 lung,> 100 µM
same,TGI,NCI-H23 lung,> 100 µM
same,GI50,PC-3 prostate,> 100 µM
same,TGI,PC-3 prostate,> 100 µM
same,GI50,DU-145 prostate,> 100 µM
same,TGI,DU-145 prostate,> 100 µM
same,GI50,UACC-62 melanoma,> 100 µM
same,TGI,UACC-62 melanoma,> 100 µM
same,GI50,K-562 leukemia,> 100 µM
same,TGI,K-562 leukemia,> 100 µM
same,GI50,SK-MEL-2 melanoma,> 100 µM
same,TGI,SK-MEL-2 melanoma,> 100 µM
same,GI50,SK-OV-3 ovarian,> 100 µM
same,TGI,SK-OV-3 ovarian,> 100 µM
same,GI50,SNB-75 CNS,> 100 µM
same,TGI,SNB-75 CNS,> 100 µM
same,GI50,EKVX NSCLC,> 100 µM
same,TGI,EKVX NSCLC,> 100 µM
same,GI50,LOX IMVI melanoma,> 100 µM
same,TGI,LOX IMVI melanoma,> 100 µM
same,GI50,SN12C renal,> 100 µM
same,TGI,SN12C renal,> 100 µM
same,GI50,HT29 colon,> 100 µM
same,TGI,HT29 colon,> 100 µM
same,GI50,MOLT-4 leukemia,> 100 µM
same,TGI,MOLT-4 leukemia,> 100 µM
same,GI50,SK-MEL-5 melanoma,> 100 µM
same,TGI,SK-MEL-5 melanoma,> 100 µM
same,GI50,HS 578T breast,> 100 µM
same,TGI,HS 578T breast,> 100 µM
same,GI50,HCT-15 colon,> 100 µM
same,TGI,HCT-15 colon,> 100 µM
